Laboratory results from PubChem BioAssay (Tox21).
Values joined by “and” are separate entries in the source; they are usually repeats but may differ in a detail not shown here. Equal entries are not always repeated. All entries are inconclusive by the source's own rule. Clear calls are listed elsewhere. Unless noted, calls come from the whole dose curve; as a rule, active = well fitted curve in the direction sought with a large enough effect in the repeat runs; inconclusive = weak or mixed curves; inactive = no such curve, though single readings can be large; an effect the other way counts as inactive or inconclusive.

By UniProt entry, the sequences of proteins in these tests, tags left out. Where a name states a change or a piece, a line headed by the entry shows the natural chain unless it says otherwise.
UniProt P10275: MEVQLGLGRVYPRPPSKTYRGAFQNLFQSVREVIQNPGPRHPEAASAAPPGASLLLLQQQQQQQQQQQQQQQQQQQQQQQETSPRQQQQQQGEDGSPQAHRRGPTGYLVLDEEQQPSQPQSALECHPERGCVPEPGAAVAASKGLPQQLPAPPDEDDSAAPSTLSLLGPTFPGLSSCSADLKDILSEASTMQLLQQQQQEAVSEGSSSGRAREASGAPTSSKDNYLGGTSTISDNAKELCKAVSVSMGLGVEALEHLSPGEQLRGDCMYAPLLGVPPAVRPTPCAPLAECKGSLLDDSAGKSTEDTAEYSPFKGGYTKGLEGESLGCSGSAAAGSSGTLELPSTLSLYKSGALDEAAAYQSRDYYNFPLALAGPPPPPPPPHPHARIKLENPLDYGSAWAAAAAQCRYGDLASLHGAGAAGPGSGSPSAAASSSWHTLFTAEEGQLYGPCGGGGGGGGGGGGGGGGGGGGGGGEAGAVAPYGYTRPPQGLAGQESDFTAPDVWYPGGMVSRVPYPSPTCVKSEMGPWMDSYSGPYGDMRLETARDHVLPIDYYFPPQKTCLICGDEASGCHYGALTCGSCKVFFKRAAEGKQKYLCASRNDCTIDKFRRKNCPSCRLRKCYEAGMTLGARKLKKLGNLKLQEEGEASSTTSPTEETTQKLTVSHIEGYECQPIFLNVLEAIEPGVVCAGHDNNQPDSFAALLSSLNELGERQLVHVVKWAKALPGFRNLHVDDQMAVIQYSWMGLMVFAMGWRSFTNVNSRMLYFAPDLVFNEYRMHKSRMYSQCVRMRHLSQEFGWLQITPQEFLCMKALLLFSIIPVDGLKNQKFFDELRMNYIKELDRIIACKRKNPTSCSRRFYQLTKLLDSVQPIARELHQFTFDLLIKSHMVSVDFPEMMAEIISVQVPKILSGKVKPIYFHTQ
UniProt P37231: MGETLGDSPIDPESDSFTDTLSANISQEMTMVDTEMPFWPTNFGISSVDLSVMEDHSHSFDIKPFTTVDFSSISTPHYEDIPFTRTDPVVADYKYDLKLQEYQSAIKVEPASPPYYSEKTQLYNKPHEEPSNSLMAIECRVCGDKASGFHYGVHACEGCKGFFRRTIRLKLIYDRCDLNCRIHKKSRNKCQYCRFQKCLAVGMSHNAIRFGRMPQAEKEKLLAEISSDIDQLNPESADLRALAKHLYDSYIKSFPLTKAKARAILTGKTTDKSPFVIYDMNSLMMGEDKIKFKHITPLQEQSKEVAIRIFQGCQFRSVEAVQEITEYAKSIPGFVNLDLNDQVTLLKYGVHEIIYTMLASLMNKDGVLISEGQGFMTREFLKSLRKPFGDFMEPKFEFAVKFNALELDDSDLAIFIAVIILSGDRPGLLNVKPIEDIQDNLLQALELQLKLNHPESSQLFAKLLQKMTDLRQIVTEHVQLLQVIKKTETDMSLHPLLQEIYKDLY
UniProt Q03181: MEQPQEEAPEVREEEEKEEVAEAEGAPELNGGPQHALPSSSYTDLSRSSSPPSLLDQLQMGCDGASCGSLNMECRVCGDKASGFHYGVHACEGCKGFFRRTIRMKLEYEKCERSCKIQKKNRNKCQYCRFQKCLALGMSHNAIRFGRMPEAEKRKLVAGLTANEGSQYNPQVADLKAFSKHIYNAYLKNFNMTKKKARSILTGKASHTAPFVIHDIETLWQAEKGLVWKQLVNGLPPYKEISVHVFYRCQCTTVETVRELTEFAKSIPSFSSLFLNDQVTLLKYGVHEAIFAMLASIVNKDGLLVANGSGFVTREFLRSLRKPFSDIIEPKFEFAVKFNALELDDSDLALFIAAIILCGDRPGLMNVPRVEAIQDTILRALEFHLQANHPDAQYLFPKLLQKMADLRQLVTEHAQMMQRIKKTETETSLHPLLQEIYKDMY
UniProt Q96RI1: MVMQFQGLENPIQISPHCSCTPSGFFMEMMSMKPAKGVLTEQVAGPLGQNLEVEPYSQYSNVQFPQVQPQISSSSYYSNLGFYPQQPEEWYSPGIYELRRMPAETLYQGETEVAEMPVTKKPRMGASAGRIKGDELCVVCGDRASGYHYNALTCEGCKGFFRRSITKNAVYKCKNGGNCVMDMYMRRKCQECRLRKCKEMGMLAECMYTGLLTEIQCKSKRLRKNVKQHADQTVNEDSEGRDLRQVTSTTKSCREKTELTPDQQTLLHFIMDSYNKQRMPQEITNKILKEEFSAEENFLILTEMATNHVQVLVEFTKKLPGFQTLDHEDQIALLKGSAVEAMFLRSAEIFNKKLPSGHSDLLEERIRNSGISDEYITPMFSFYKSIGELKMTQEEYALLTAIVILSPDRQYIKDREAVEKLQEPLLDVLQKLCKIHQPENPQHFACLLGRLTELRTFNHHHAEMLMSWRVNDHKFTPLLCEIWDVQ
UniProt P11473: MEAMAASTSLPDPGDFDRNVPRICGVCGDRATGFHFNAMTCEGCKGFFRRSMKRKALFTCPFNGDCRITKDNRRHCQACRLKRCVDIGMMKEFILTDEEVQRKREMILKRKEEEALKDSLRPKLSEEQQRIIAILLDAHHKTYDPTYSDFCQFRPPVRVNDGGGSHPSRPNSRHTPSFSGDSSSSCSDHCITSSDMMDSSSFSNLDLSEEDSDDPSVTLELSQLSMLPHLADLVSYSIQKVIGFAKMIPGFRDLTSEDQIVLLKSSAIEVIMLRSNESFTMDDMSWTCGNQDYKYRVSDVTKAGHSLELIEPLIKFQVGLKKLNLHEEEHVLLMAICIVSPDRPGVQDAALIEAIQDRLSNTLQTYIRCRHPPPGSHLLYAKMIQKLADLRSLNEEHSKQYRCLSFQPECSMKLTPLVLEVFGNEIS
UniProt P19793: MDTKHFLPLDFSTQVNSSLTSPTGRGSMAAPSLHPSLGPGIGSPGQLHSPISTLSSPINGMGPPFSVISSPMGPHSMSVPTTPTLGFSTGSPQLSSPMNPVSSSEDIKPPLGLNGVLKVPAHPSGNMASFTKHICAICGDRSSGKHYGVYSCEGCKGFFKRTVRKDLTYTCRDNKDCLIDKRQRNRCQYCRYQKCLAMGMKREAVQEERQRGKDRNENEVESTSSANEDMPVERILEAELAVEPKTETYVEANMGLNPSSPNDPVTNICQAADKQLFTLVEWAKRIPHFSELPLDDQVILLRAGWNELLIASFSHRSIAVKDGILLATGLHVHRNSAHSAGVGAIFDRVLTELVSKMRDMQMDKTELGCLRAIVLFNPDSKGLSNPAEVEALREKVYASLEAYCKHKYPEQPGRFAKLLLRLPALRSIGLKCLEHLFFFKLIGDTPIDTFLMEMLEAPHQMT

Tests used:
[1] = target: Androgen receptor (Homo sapiens) (UniProt P10275); assay: qHTS assay to identify small molecule agonists of the androgen receptor (AR) signaling pathway (AID 743036; active = well fitted activation curve with a large enough effect in the signal ratio in the repeat runs, with a control signal flat, not every such curve was filed as active; inconclusive = weak or mixed curves, or effect the other way; inactive = no such curve, though single readings can be large or run the other way; the % refers to the signal ratio); conditions: HEK293 AR-UAS-bla GripTite, beta-lactamase FRET ratio, 16 h; activation: at 62.4 µM (top of the series)
[2] = target: Peroxisome proliferator-activated receptor gamma (Homo sapiens) (UniProt P37231); assay: qHTS assay to identify small molecule agonists of the peroxisome proliferator-activated receptor gamma (PPARg) signaling pathway (AID 743094; active = well fitted activation curve with a large enough effect in the signal ratio in the repeat runs, not every such curve was filed as active; inconclusive = weak or mixed curves, or effect the other way; inactive = no such curve, though single readings can be large or run the other way; the % refers to the signal ratio; for activation: % is set by controls: 0 for no effect and ±100 for the full control effect); conditions: HEK293H PPARg-UAS-bla, beta-lactamase FRET ratio, 17 h; activation: at 57 µM (top of the series)
Procedure, shortened: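 Compounds dissolved in DMSO were added to PPARg UAS-bla HEK293H cells for 17 h at 37C, and reporter expression was quantified by fluorescence intensity after 1 h with LiveBLAzer B/G FRET substrate.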

[3] = qHTS assay to identify small molecule antagonists of the peroxisome proliferator-activated receptor gamma (PPARg) signaling pathway - cell viability counter screen (AID 743194); conditions: PPARg-bla HEK293H viability, CellTiter-Glo luminescence, 17 h; co-treated with 50 nM rosiglitazone; note: nearly all actives have a fitted effect of over 55% in size
Procedure, shortened: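 PPARg-UAS-bla HEK293H cells were plated, rested 5 h at 37 C, then treated with compounds plus rosiglitazone (50 nM final) for 17 h at 37 C; viability was then read by CellTiter-Glo luminescence after 30 min at room temperature.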

[4] = qHTS assay to identify small molecule agonists of the peroxisome proliferator-activated receptor delta (PPARd) signaling pathway - cell viability counter screen (AID 743211); conditions: PPARd-bla HEK293H viability, CellTiter-Glo luminescence, 17 h; note: nearly all actives have a fitted effect of over 55% in size
Procedure, shortened: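 Viability was measured as CellTiter-Glo luminescence (30 min, room temperature) in the same wells as the beta-lactamase readout. GeneBLAzer PPARd UAS-bla HEK293H cells received compound after 5 h plating and were incubated 17 h at 37 C.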

[5] = qHTS assay to identify small molecule antagonists of the peroxisome proliferator-activated receptor delta (PPARd) signaling pathway - cell viability counter screen (AID 743213); conditions: PPARd-bla HEK293H viability, CellTiter-Glo luminescence, 17 h; note: nearly all actives have a fitted effect of over 50% in size
Procedure, shortened: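 HEK293H PPARd UAS-bla cells, 5 h pre-incubation, compound + L165041 300 nM final, 17 h 37 C; B/G FRET substrate 2 h RT; then CellTiter-Glo 30 min RT, luminescence.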

[6] = target: Peroxisome proliferator-activated receptor delta (Homo sapiens) (UniProt Q03181); assay: qHTS assay to identify small molecule antagonists of the peroxisome proliferator-activated receptor delta (PPARd) signaling pathway (AID 743215; active = well fitted inhibition curve with a large enough effect in the signal ratio in the repeat runs, not every such curve was filed as active; inconclusive = weak or mixed curves, or effect the other way; inactive = no such curve, though single readings can be large or run the other way; the % refers to the signal ratio;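 note: cells stimulated with agonist L165041 at 300 nM final during compound exposure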); conditions: HEK293H PPARd-UAS-bla, beta-lactamase FRET ratio, antagonist, 17 h; ratio activity, negative = inhibition: at 62 µM (top of the series)
Procedure, shortened: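 HEK293H UAS-bla, PPARd; agonist L165041 300 nM final with cpd in DMSO; 37 C 17 h; FRET substrate, RT 2 h; fluorescence intensity.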

[7] = target: Bile acid receptor (Homo sapiens) (UniProt Q96RI1); assay: qHTS assay to identify small molecule antagonists of the farnesoid-X-receptor (FXR) signaling pathway (AID 743217; active = well fitted inhibition curve with a large enough effect in the signal ratio in the repeat runs, not every such curve was filed as active; inconclusive = weak or mixed curves, or effect the other way; inactive = no such curve, though single readings can be large or run the other way; the % refers to the signal ratio); conditions: HEK293T FXR-UAS-bla, beta-lactamase ratio, CDCA-stimulated, 16 h; activity change, negative = inhibition: at 81.1 µM (top of the series)
Procedure, shortened: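 GeneBLAzer FXR-UAS-bla HEK 293T, CDCA-stimulated (50 uM final). Compound treatment 16 h, 37 °C. Detection: beta-lactamase cleavage of B/G FRET substrate, fluorescence.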

[8] = target: Bile acid receptor (Homo sapiens) (UniProt Q96RI1); assay: qHTS assay to identify small molecule agonists of the farnesoid-X-receptor (FXR) signaling pathway (AID 743220; active = well fitted activation curve with a large enough effect in the signal ratio in the repeat runs, not every such curve was filed as active; inconclusive = weak or mixed curves, or effect the other way; the % refers to the signal ratio); conditions: HEK293T FXR-UAS-bla, beta-lactamase FRET ratio, 16 h; activation: at 81.1 µM (top of the series)
[9] = qHTS assay to identify small molecule antagonists of the farnesoid-X-receptor (FXR) signaling pathway - cell viability counter screen (AID 743221; active = well fitted cell-killing curve with a large enough effect in the repeat runs, not every such curve was filed as active; inconclusive = weak or mixed curves, or effect the other way; inactive = no such curve, though single readings can be large or run the other way; note: nearly all actives have a fitted effect of over 50% in size); conditions: FXR-bla HEK293T viability, CellTiter-Glo luminescence, 16 h
From the text: National Center for Advancing Translational Sciences [NCATS]
NIH Chemical Genomics Center [NCGC]
U.S. Environmental Protection Agency [EPA]
National Institutes of Environmental Health Sciences [NIEHS]
National Toxicology Program [NTP]
U.S. Food and Drug Administration [FDA]
The farnesoid-X-receptor (FXR), a nuclear hormone receptor, is highly expressed in liver, intestine, kidney and adrenal cortex. Natural ligands of FXR are the bile acids (Cholic acid, Chenodeoxy cholic acid etc). FXR is an important regulator of diverse metabolic pathways, including the bile acid homeostasis, lipid and glucose metabolisms. […]
FXR-bla cells were dispensed at 5000 cells/5uL/well in 1536-well black wall/clear bottom plates using a Multidrop Combi (Thermo Fisher Scientific, Waltham, MA) dispenser. […] After 1 uL of LiveBLAzerTM B/G FRET substrate was added using a Bioraptr Flying Reagent Dispenser (FRD) workstation (Beckman Coulter, Indianapolis, IN), the plates were incubated at room temperature for 2 h, and fluorescence intensity was measured by an Envision plate reader (PerkinElmer, Shelton, CT). For cell viability readout that measures cytotoxicity, 4uL/well of CellTiter-Glo reagent was added into the assay plates using a Bioraptr FRD. After 30 min incubation at room temperature, the luminescence intensity in the plates was measured using a ViewLux plate reader (PerkinElmer).

[10] = target: Vitamin D3 receptor (Homo sapiens) (UniProt P11473); assay: qHTS assay to identify small molecule antagonists of the vitamin D receptor (VDR) signaling pathway (AID 743223; active = well fitted inhibition curve with a large enough effect in the signal ratio in the repeat runs, not every such curve was filed as active; inconclusive = weak or mixed curves, or effect the other way; inactive = no such curve, though single readings can be large or run the other way; the % refers to the signal ratio); conditions: VDR-UAS-bla HEK293T, beta-lactamase FRET ratio, 16 h; activity change, negative = inhibition: at 61 µM (top of the series)
Procedure, shortened: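 Antagonist mode: compound added to VDR-bla cells alongside agonist 1alpha,25-dihydroxyvitamin D3 (3 nM final), incubation 16 h at 37C. Read-out is LiveBLAzer FRET fluorescence, 2 h at room temperature.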

[11] = qHTS assay to identify small molecule agonists of the vitamin D receptor (VDR) signaling pathway - cell viability counter screen (AID 743224); conditions: VDR-bla HEK293T viability, CellTiter-Glo luminescence, 16 h; note: nearly all actives have a fitted effect of over 50% in size
Procedure, shortened: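 Plated VDR-bla cells (4 h, 37C) received compound, incubated 16 h, then LiveBLAzer substrate 2 h RT; CellTiter-Glo added afterwards, luminescence read at 30 min.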

[12] = qHTS assay to identify small molecule agonists of the endoplasmic reticulum stress response signaling pathway (AID 1159516; active = well fitted activation curve with a large enough effect in the signal ratio in the repeat runs, not every such curve was filed as active; inconclusive = weak or mixed curves, or effect the other way; the % refers to the signal ratio); conditions: ESRE-bla HeLa, ER stress beta-lactamase reporter, 5 h
Procedure, shortened: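 An ESRE-bla HeLa cell assay: compounds were pin-transferred from DMSO onto overnight-plated cells and left 5 hr at 37 C. Substrate was then loaded for 2 hr at room temperature before reading fluorescence at 460 nm and 530 nm.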

[13] = qHTS assay to identify small molecule agonists of the endoplasmic reticulum stress response signaling pathway - cell viability counter screen (AID 1159517; calls by dose curve; note: nearly all actives have a fitted effect of over 50% in size); conditions: ESRE-bla HeLa viability, CellTiter-Glo luminescence, 5 h
Procedure, shortened: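 Luminescence readout: CellTiter-Glo, 30 min RT, same wells as the ESRE-bla reporter read. HeLa ESRE-bla, 1,500 cells/well, o/n 37 C; cpd 5 hr 37 C/5% CO2.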

[14] = qHTS assay to identify small molecule agonists of the AP-1 signaling pathway - cell viability counter screen (AID 1159525; calls by dose curve; note: nearly all actives have a fitted effect of over 55% in size); conditions: ME-180 AP-1-bla cells viability, ATP luminescence, 5 h
Procedure, shortened: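 ME-180 AP-1-bla, 2500 cells/well, Opti-MEM + 0.5% dialyzed FBS; overnight 37 °C; cpd 15-pt titration, 5 h 37 °C; CellTiter-Glo 30 min RT; luminescence read; normalised to TOAB and DMSO controls.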

[15] = qHTS assay to identify small molecule agonists of the AP-1 signaling pathway (AID 1159526; calls by dose curve; for activation: % is set by controls: 0 for no effect and ±100 for the full control effect); conditions: ME-180 (cervical carcinoma) AP-1-bla reporter, beta-lactamase FRET ratio, 5 h; activation: at 76.8 µM (top of the series)
[16] = target: Retinoic acid receptor RXR-alpha (Homo sapiens) (UniProt P19793); assay: qHTS assay to identify small molecule agonists of the RXR signaling pathway (AID 1159527; calls by dose curve; note: nearly all actives have a fitted effect of over 35% in size; for activation: % is set by controls: 0 for no effect and ±100 for the full control effect); conditions: HEK293T RXRa-UAS-bla, beta-lactamase ratio, 16 h; activation: at 76.8 µM (top of the series)
[17] = qHTS assay to identify small molecule agonists of the retinoic acid receptor (RAR) signaling pathway (AID 1159553); conditions: C3RL4 RARE luciferase reporter, agonist, 6 h; activation: at 73.3 µM (top of the series)
Procedure, shortened: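 Reporter readout comes from luciferase under RARE control in C3RL4 cells; compound exposure lasts 6 hr at 37 C in 5% CO2, and luminescence is recorded following a 30 min room-temperature incubation with reagent.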
Potency is the fitted concentration of half-maximal effect.

Cc1cc([N+](=O)[O-])cc([N+](=O)[O-])c1O
inconclusive: Potency [1] 6.92 µM | Potency [2] 4.36 µM | activation [2] -10.6% | Potency [3] 13.8 µM and 4.33 µM | Potency [4] 1.95 µM and 5.45 µM | Potency [5] 11 µM and 4.9 µM | Potency [6] 49 µM and 12.2 nM | Potency [7] 49 µM and 13.8 µM | Potency [8] 0.435 µM | Potency [9] 0.776 µM | Potency [10] 13.8 µM | Potency [11] 1.1 µM | Potency [12] 0.0012 µM | Potency [13] 0.0194 µM | Potency [14] 0.49 µM | Potency [15] 21.9 µM | activation [15] -18.2% | Potency [16] 3.89 µM | activation [16] -36.9% | Potency [17] 77 µM
